In this assay the test system is CFA induced chronic inflammatory pain (mechanical hypersensitivity). The experiment in a line: Complete Freund's Adjuvant (CFA) rat inflammatory pain model, paw withdrawal to von Frey hairs after intranasal administration. Type of assay: in vivo, Sprague Dawley rats. The following applies: Example 1, FIG. 1; intranasal 7.5 mg kg−1 LENK (30 mg mL−1); 20, 40 min, 1, 1.5, 2, 3 and 4 hr. As to the method: Sprague Dawley rats (200-250 g) were housed four per cage in an air conditioned unit maintained at 20-22° C. and 50-60% humidity and were allowed free access to standard rodent chow and water. Lighting was controlled on a twelve-hour cycle, lights on at 07.00 h. Animals were habituated for 7 days prior to experimentation and acclimatised to the procedure room for 1 hr prior to testing. All protocols were conducted under a UK Home office licence and approved by a local ethics committee.
Rats were intranasally administered water for injection (0.05 ml), intranasal LENK hydrochloride salt in water 30 mg mL^−1, (7.5 mg kg^−1, pH=5.8, 50 μL), GCPQ-LENK in water composed of LENK hydrochloride salt 30 mg mL^−1, (7.5 mg kg^−1, pH=5.8, 50 μL) and GCPQ (30 mg mL^−1). […] The administered volume was adjusted based on the high performance liquid chromatography (HPLC) quantification of LENK and the body weight of each animal. […]
Rats received an intraplantar injection of 100 μL of CFA (Mycobacterium tuberculosis heat killed suspended in 85% paraffin oil and 15% mannide monooleate 1 mg/ml, Sigma) using a glass Hamilton syringe with a 25 G needle. CFA caused hind paw oedema and mechanical hypersensitivity was evaluated 24 hr after CFA injection.
Mechanical hypersensitivity was evaluated. […] The lowest amount of force required to elicit a response was recorded as the paw withdrawal (g). […]

The chains behind the UniProt entries cited, without tags or fusion partners. Where a name states a change or a piece, a line headed by the entry shows the natural chain unless it says otherwise.
UniProt P01210: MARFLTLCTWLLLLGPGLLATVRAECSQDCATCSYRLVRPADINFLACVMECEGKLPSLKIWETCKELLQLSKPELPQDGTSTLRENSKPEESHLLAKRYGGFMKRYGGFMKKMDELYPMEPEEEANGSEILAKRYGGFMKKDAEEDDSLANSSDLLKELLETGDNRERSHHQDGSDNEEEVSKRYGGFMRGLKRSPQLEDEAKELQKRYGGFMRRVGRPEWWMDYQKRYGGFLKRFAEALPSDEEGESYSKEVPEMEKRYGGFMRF

Data on 1 substance can be found in patent US10213474B2, “Delivery of drugs” (Nanomerics LTD, priority 2013, dated 2019).

On to “Leucine5-enkephalin (YGGFL; Leu-enkephalin hydrochloride salt; UniProt P01210 230-234, looked up) [LENK solution, intranasal LENK hydrochloride salt in water 30 mg mL−1, pH 5.8]”, for which the “difference in paw withdrawal versus vehicle control” value is “No statistical difference”.
